For orientation: inhibition means the change of the read-out against control, counted positive when it falls.

Chains of the proteins cited; added tags and fusions are not shown.
UniProt Q17339, whole entry: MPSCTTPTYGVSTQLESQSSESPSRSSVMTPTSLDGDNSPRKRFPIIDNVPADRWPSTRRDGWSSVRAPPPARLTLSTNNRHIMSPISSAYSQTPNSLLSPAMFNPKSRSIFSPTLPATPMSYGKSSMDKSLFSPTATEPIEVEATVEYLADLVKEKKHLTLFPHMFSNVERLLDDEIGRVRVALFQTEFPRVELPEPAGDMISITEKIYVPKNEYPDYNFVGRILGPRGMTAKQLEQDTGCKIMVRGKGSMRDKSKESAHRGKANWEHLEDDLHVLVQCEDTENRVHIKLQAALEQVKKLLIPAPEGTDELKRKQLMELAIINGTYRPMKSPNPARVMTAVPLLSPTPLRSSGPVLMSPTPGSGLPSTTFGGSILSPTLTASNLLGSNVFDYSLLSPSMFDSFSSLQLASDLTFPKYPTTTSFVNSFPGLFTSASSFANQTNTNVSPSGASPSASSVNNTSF

Each structure is given as a SMILES string. The entries are a selection whose mix differs from that of the whole data set. Some results for these compounds are left out of this collection, so the calls shown say nothing about other tests. Activity calls are given as the source filed them.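 Rule for the calls: active = percent inhibition above a per-plate cutoff, the plate mean of test compounds plus 3 SD (cut at about 30% in these data); inactive = the rest.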

This experiment deals with Female germline-specific tumor suppressor gld-1 (Caenorhabditis elegans) (UniProt Q17339). Kind of experiment: small molecules blocking C. elegans GLD-1 RNA recognition – biochemical, fluorescence polarization, primary screen (AID 2280).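 Note: 0% = DMSO wells with GLD-1 and probe and 100% = wells lacking GLD-1.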 To be noted: purified GLD-1 + fluorescein TGE RNA, at 5.96 µM, hits give high values. On the technique in general: In fluorescence polarisation assays a small probe gives low polarisation when free and higher when bound to something large.
For the molecule `Cc1ccc(C(=O)NCC2(N3CCCCC3)CCCCC2)cc1`, the inhibition is inactive: -1%.
The same measure for `CC(C)N1C(=O)CC2(CCN(CCOC(=O)C(O)(c3ccccc3)c3ccccc3)CC2)C1=O`: inactive: 5.09%; for `COc1cc(SC)ccc1C(=O)NCC1(N(C)C)CCCCC1`: inactive: -1.8%; for `CCN(CC)CC(C)C(C)OC(=O)C(O)(c1ccccc1)c1ccccc1` (centres undefined): inactive: 1.61%.
The same measure for `CN1[C@@H]2CC[C@H]1CC(OC(=O)C(O)(c1ccccc1)c1ccccc1)C2` (some centres undefined): inactive: -13%; for `O=C(NCC1(N2CCCCC2)CCCCC1)c1cc([N+](=O)[O-])ccc1Cl`: inactive: -5.44%.
The same measure for `O=C(NCC1(N2CCCCC2)CCCCC1)c1cccc(Br)c1`: inactive: -13.6%; for `Cc1cc(C(=O)NCC2(N3CCCCC3)CCCCC2)ccc1[N+](=O)[O-]`: inactive: -7.28%; for `CCN1CCCC(OC(=O)C2(O)c3ccccc3C=Cc3ccccc32)C1` (centres undefined): inactive: 2.29%.
On to `COc1ccc(C(=O)NCC2(N(C)C)CCCCC2)cc1`, for which the inhibition was inactive: -4.99%.
With `O=C(NCC1(N2CCCCC2)CCCCC1)c1cc(F)c(F)cc1Cl`, the inhibition was inactive: 2.22%.
In the case of `C=CCN1CCN(CCOC(=O)C(O)(c2ccccc2)c2ccccc2)CC1`, the inhibition was inactive: -0.81%.
As for `CN(C)C1CCCC1OC(=O)C(O)(c1ccccc1)c1ccccc1` (centres undefined), the inhibition is inactive: -3.81%.
The same measure for `CN(C)c1ccc(C(=O)NCC2(N(C)C)CCCCC2)cc1`: inactive: -3.58%.
On to `Cc1ccccc1C(=O)NCC1(N2CCCCC2)CCCCC1`, for which the inhibition is inactive: -8.48%.
With `O=C(NCC1(N2CCCCC2)CCCCC1)c1cccc(Cl)c1`, the inhibition was inactive: 0.38%.
As for `COc1ccc(Cl)cc1C(=O)NCC1(N(C)C)CCCCC1`, the figure is inactive: 12%.
As for `COc1cccc(C(=O)NCC2(N3CCCCC3)CCCCC2)c1`, the figure is inactive: 3.91%; as for `COc1cc(C(=O)NCC2(N(C)C)CCCCC2)c([N+](=O)[O-])cc1OC`, inactive: 5.88%.
As for `CN(C)C1(CNC(=O)c2ccc(Br)cc2)CCCCC1`, the figure is inactive: 5.68%; as for `CN(C)c1cccc(C(=O)NCC2(N(C)C)CCCCC2)c1`, inactive: 6.21%; as for `CC(C)Oc1ccc(C(=O)NCC2(N(C)C)CCCCC2)cc1`, inactive: 4.32%.
As to `COc1ccc(Br)c(C(=O)NCC2(N3CCCCC3)CCCCC2)c1`, the inhibition is inactive: -12.7%.
Take `O=C(OC1CN2CCC1CC2)C(CO)(c1ccccc1)c1ccccc1` (centres undefined): the inhibition is inactive: 4.43%.

For the origin of these results see PubChem BioAssay AID2280 (The Scripps Research Institute Molecular Screening Center, 2010).
